In PubChem BioAssay (NCI):
Some results for these compounds are left out of this collection, so the calls shown say nothing about other tests.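 Step 1: Grow cells in 96-well plates. Step 2: Expose to compound for 48 hours at 5 concentrations. Step 3: Interpolate endpoints linearly; if unreached, use highest concentration. GI50 is the concentration that inhibits growth by half.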

Key:
Assay in all cases: DTP human tumour cell line panel, 48 h; in the data active = GI50 below about 0.43 µM; inactive = the rest
MOLT-4 leukemia = tested on: MOLT-4 leukemia
SF-268 CNS = tested on: SF-268 CNS
CAKI-1 renal = tested on: CAKI-1 renal
SNB-19 CNS = tested on: SNB-19 CNS
SK-OV-3 ovarian = tested on: SK-OV-3 ovarian
MCF7 breast = tested on: MCF7 breast
786-0 renal = tested on: 786-0 renal
RXF 393 renal = tested on: RXF 393 renal
UACC-257 melanoma = tested on: UACC-257 melanoma
OVCAR-3 ovarian = tested on: OVCAR-3 ovarian
NCI-H23 lung = tested on: NCI-H23 lung
SNB-75 CNS = tested on: SNB-75 CNS
SN12C renal = tested on: SN12C renal
ACHN renal = tested on: ACHN renal
DU-145 prostate = tested on: DU-145 prostate
OVCAR-8 ovarian = tested on: OVCAR-8 ovarian
KM12 colon = tested on: KM12 colon
PC-3 prostate = tested on: PC-3 prostate
SW-620 colon = tested on: SW-620 colon
A549 NSCLC = tested on: A549 NSCLC
MDA-MB-231 breast = tested on: MDA-MB-231 breast
NCI-H522 lung = tested on: NCI-H522 lung
UO-31 renal = tested on: UO-31 renal
SF-539 CNS = tested on: SF-539 CNS
HL-60(TB) leukemia = tested on: HL-60(TB) leukemia
NCI/ADR-RES ovarian = tested on: NCI/ADR-RES ovarian
K-562 leukemia = tested on: K-562 leukemia
HOP-62 NSCLC = tested on: HOP-62 NSCLC
EKVX NSCLC = tested on: EKVX NSCLC
UACC-62 melanoma = tested on: UACC-62 melanoma
OVCAR-5 ovarian = tested on: OVCAR-5 ovarian
CCRF-CEM leukemia = tested on: CCRF-CEM leukemia
COLO 205 colon = tested on: COLO 205 colon
U251 CNS = tested on: U251 CNS
RPMI-8226 leukemia = tested on: RPMI-8226 leukemia
SR leukemia = tested on: SR leukemia
SK-MEL-5 melanoma = tested on: SK-MEL-5 melanoma
LOX IMVI melanoma = tested on: LOX IMVI melanoma
SK-MEL-28 melanoma = tested on: SK-MEL-28 melanoma
MALME-3M melanoma = tested on: MALME-3M melanoma
T-47D breast = tested on: T-47D breast
MDA-N = tested on: MDA-N
M14 melanoma = tested on: M14 melanoma
SF-295 CNS = tested on: SF-295 CNS
HCT-116 colon = tested on: HCT-116 colon
NCI-H226 lung = tested on: NCI-H226 lung
HCT-15 colon = tested on: HCT-15 colon
HT29 colon = tested on: HT29 colon
TK-10 renal = tested on: TK-10 renal
HCC-2998 colon = tested on: HCC-2998 colon
IGROV1 ovarian = tested on: IGROV1 ovarian

Measured: GI50

CN1CCC(OC(=O)C2(O)c3ccccc3Oc3ccccc32)CC1
inactive: MOLT-4 leukemia > 100 µM | SF-268 CNS > 100 µM | CAKI-1 renal > 100 µM | SNB-19 CNS > 100 µM | SK-OV-3 ovarian > 100 µM | MCF7 breast > 100 µM | 786-0 renal > 100 µM | RXF 393 renal > 100 µM | UACC-257 melanoma > 100 µM | OVCAR-3 ovarian > 100 µM | NCI-H23 lung > 100 µM | SNB-75 CNS > 100 µM | SN12C renal > 100 µM | ACHN renal > 100 µM | DU-145 prostate > 100 µM | OVCAR-8 ovarian > 100 µM | KM12 colon > 100 µM | PC-3 prostate > 100 µM | SW-620 colon > 100 µM | A549 NSCLC > 100 µM | MDA-MB-231 breast > 100 µM | NCI-H522 lung > 100 µM | UO-31 renal > 100 µM | SF-539 CNS > 100 µM | HL-60(TB) leukemia > 100 µM | NCI/ADR-RES ovarian > 100 µM | K-562 leukemia > 100 µM | HOP-62 NSCLC > 100 µM | EKVX NSCLC > 100 µM | UACC-62 melanoma > 100 µM | OVCAR-5 ovarian > 100 µM | CCRF-CEM leukemia > 100 µM | COLO 205 colon > 100 µM | U251 CNS > 100 µM | RPMI-8226 leukemia > 100 µM | SR leukemia > 100 µM | SK-MEL-5 melanoma > 100 µM | LOX IMVI melanoma > 100 µM | SK-MEL-28 melanoma > 100 µM | MALME-3M melanoma > 100 µM | T-47D breast > 100 µM | MDA-N > 100 µM | M14 melanoma > 100 µM | SF-295 CNS > 100 µM | HCT-116 colon > 100 µM | NCI-H226 lung > 100 µM | HCT-15 colon > 100 µM | HT29 colon > 100 µM | TK-10 renal > 100 µM | HCC-2998 colon > 100 µM | IGROV1 ovarian > 100 µM
